Assay results taken from ChEMBL document CHEMBL1134342, “Current and novel approaches to the drug treatment of schizophrenia” (J Med Chem, 2001).

Tests used:
Rodentia sp. [1] = system: Rodentia sp.
Rodentia sp. [2] = experiment: animal or person; conditions: read-out: MED
Rodentia sp. [3] = experiment: animal or person
Rodentia sp. [4] = system: Rodentia sp.; remark: listed apart in the source
Rodentia sp. [5] = experiment: animal or person; conditions: read-out: MED; remark: listed apart in the source
Rodentia sp. [6] = system: Rodentia sp.; remark: listed apart in the source
Rodentia sp. [7] = system: Rodentia sp.; remark: listed apart in the source
Rodentia sp. [8] = experiment: animal or person; conditions: read-out: MED; remark: listed apart in the source

## Clc1ccc(N2CCN(Cc3c[nH]c4ncccc34)CC2)cc1 [L-745870]
Rodentia sp. [1]
  NE: inactive
Rodentia sp. [2]
  minimal effective dose: 100 mg/kg
Rodentia sp. [3]
  ED50: 22 mg/kg
Rodentia sp. [4]
  NE: inactive
Rodentia sp. [5]
  minimal effective dose: 30 mg/kg
Rodentia sp. [6]
  NE: inactive
Rodentia sp. [7]
  NE: inactive
Rodentia sp. [8]
  minimal effective dose: 100 mg/kg

Calls of active or inactive are those of the source. No cut-off for these calls is given here.
